This note sets out measurements from patent publication US10301344B2, “L-proline complex of sodium-glucose cotransporter 2 inhibitor, monohydrate and crystal form thereof” (Jiangsu Hengrui Medicine Co., Ltd., priority 2014, dated 2019).

Like-named read-outs stand apart in the source and are kept apart here.

The conditions of data set [1]: for effect of high humidity on stability: RH 75%, RH 90%; for purity as detected by HPLC, 40° C.: heating 40° C.; for purity as detected by HPLC, 60° C.: heating 60° C.; for purity as detected by HPLC, RH 75%: high humidity RH 75%; for purity as detected by HPLC, RH 90%: high humidity RH 90%; for purity as detected by HPLC, Lighting: lighting 4500 Lux.
For data set [2] the following is noted: for stability of the crystal form on grinding, heating and pressing: grinded, heated and pressed.
[3] abbreviates: grinding treatment for 10 min in a mortar under nitrogen.
Setting [4] is: heating treatment at 60° C. for 3 hours.
Where [5] appears, read: pressing treatment, pressed to a slice.

Turning to “1,6-anhydro-1-C-{4-chloro-3-[(3-fluoro-4-ethoxyphenyl)methyl]phenyl}-5-C-(hydroxymethyl)-β-L-idopyranose L-proline [Amorphous]”, the “effect of high humidity on stability” value in data set [1] is given as “does not have much effect”. Further, in data set [1] (day 0), the “purity as detected by HPLC, 40° C.” value came out at 99.68%; the “purity as detected by HPLC, 60° C.” value is recorded as 99.68%; the “purity as detected by HPLC, RH 75%” value is 99.68%; the “purity as detected by HPLC, RH 90%” value is 99.68%. Also, in data set [1] (day 0), the “purity as detected by HPLC, Lighting” value was determined as 99.68%. For the same substance, in data set [1] (day 5), the “purity as detected by HPLC, 40° C.” value is recorded as 99.65%; the “purity as detected by HPLC, 60° C.” value stood at 99.67%; the “purity as detected by HPLC, RH 75%” value is on record as 99.66%; the “purity as detected by HPLC, RH 90%” value came out at 99.66%. Further, in data set [1] (day 5), the “purity as detected by HPLC, Lighting” value is 99.60%. In addition, in data set [1] (day 10), the “purity as detected by HPLC, 40° C.” value was found to be 99.62%; the “purity as detected by HPLC, 60° C.” value came out at 99.56%; the “purity as detected by HPLC, RH 75%” value worked out at 99.65%; the “purity as detected by HPLC, RH 90%” value came to 99.64%. In data set [1] (day 10), the “purity as detected by HPLC, Lighting” value amounted to 99.55%.

On to “1,6-anhydro-1-C-{4-chloro-3-[(3-fluoro-4-ethoxyphenyl)methyl]phenyl}-5-C-(hydroxymethyl)-β-L-idopyranose L-proline [Crystal form A]”, for which the “effect of high humidity on stability” value in data set [1] is on record as “does not have much effect”. For the same substance, in data set [1] (compared with the amorphous sample), the “stability under the conditions of lighting and high temperature” value was “significantly better than that of the amorphous sample”. The “stability under the conditions of high temperature and high humidity” value in data set [1] (compared with the amorphous sample, summary statement) was “significantly better than that of the amorphous sample”. Besides, in data set [1] (day 0), the “purity as detected by HPLC, 40° C.” value is 99.76%; the “purity as detected by HPLC, 60° C.” value is recorded as 99.76%; the “purity as detected by HPLC, RH 75%” value is reported as 99.76%; the “purity as detected by HPLC, RH 90%” value was 99.76%. In addition, in data set [1] (day 0), the “purity as detected by HPLC, Lighting” value was determined as 99.76%. For the same substance, in data set [1] (day 5), the “purity as detected by HPLC, 40° C.” value worked out at 99.76%; the “purity as detected by HPLC, 60° C.” value is listed as 99.74%; the “purity as detected by HPLC, RH 75%” value is 99.75%; the “purity as detected by HPLC, RH 90%” value came out at 99.76%. In addition, in data set [1] (day 5), the “purity as detected by HPLC, Lighting” value was 99.76%. Besides, in data set [1] (day 10), the “purity as detected by HPLC, 40° C.” value is listed as 99.75%; the “purity as detected by HPLC, 60° C.” value came out at 99.74%; the “purity as detected by HPLC, RH 75%” value is 99.74%; the “purity as detected by HPLC, RH 90%” value is 99.75%. The “purity as detected by HPLC, Lighting” value in data set [1] (day 10) was 99.76%. Moreover, the “stability of the crystal form on grinding, heating and pressing” value in data set [2] was “the crystal form was stable”. For the same substance, the “stability of the crystal form on grinding, heating and pressing” value in data set [2] (listed as crystal form A) was “good stability”. In data set [2] (setting [3]), the “Crystal form after treatment” value is “form A” and the “DSC peak after treatment” value was 110.46 °C. In data set [2] (setting [4]), the “Crystal form after treatment” value is given as “form A” and the “DSC peak after treatment” value worked out at 110.64 °C. In data set [2] (setting [5]), the “Crystal form after treatment” value was “form A” and the “DSC peak after treatment” value amounted to 110.29 °C.
